The strong results were mostly taken out for another list; the other results follow. Entries with a potency or affinity are not part of this list.

This test deals with Pseudomonas aeruginosa. Conditions: Concentration 20 uM; ASSAY_TEST Inhibition of Bacterial Growth; detection method Absorption (OD600); MEDIA CAMHB; plate type 384well; NBS; CORNING #3640; time 18 hr.
On to `COc1ccc(C[C@H](C)NC[C@@H](O)c2ccc(O)c(NC=O)c2)cc1.O.O.O=C(O)/C=C/C(=O)O`, for which the Inhibition (usually the share of the control response that was lost under treatment) is reported as 12.67%.

As to `O.O=P1(N(CCCl)CCCl)NCCCO1` (configuration not stated) [CYCLOPHOSPHAMIDE], the Inhibition is reported as 4.42%.

These data come from ChEMBL document CHEMBL4513141, “CO-ADD screening of NIH (USA) - Clinical Collection” (2021).
